Measured values taken from PubChem BioAssay AID720707 (National Center for Advancing Translational Sciences (NCATS), 2013).
Only a part is listed here, and it is no random draw. Calls of active or inactive are those of the source. The call rests on the fitted dose curve; in most records, active means well fitted activation curve with a large enough effect; inconclusive means small, poorly fitted or top-dose-only effect; inactive means no such curve, though single readings can be large or run the other way.

Sequences of proteins named here, by UniProt entry; tags and fusion partners are left off. A change or cut given only in a name is not applied to a line headed by its entry.
UniProt O95398: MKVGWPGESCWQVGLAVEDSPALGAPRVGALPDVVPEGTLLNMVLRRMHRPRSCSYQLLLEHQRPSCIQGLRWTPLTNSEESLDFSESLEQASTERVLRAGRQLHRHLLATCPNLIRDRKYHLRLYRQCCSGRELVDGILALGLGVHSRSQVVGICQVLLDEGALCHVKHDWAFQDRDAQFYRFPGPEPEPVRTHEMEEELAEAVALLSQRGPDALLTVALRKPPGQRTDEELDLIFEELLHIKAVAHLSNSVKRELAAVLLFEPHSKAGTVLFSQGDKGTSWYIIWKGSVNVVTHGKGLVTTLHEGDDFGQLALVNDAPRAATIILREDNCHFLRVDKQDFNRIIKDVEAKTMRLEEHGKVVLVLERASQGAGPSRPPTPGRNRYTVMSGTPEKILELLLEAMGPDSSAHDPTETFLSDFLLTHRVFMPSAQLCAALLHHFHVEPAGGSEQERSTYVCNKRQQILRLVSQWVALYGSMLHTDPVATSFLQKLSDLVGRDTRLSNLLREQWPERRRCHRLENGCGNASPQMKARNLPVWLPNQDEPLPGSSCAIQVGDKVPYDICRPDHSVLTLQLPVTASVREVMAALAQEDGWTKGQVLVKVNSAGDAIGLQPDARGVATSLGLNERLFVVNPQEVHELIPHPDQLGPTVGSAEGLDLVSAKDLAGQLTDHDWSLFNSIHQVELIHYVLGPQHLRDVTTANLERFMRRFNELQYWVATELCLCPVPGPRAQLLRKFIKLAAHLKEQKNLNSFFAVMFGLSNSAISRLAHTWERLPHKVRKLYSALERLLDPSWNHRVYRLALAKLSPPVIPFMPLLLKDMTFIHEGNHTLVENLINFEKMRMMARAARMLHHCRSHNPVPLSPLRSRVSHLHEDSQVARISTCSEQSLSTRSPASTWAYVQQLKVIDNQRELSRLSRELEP

Biological target: Rap guanine nucleotide exchange factor 3 (Homo sapiens) (UniProt O95398)
Assay: qHTS for Agonist of cAMP-regulated guanine nucleotide exchange factor 3 (EPAC1): primary screen; further: nearly all actives have a fitted effect of over 60% in size
Settings: biochemical assay, 100% = response to 6.5 mM cAMP; at 154 µM (top of the series)
Description: In multi-cellular eukaryotic organisms, the effects of cAMP are transduced by two ubiquitously-expressed intracellular cAMP receptors, the classic protein kinase A/cAMP-dependent protein kinase (PKA/cAPK) and the more recently discovered exchange protein directly activated by cAMP/cAMP-regulated guanine nucleotide exchange factor (EPAC/cAMP-GEF). Both PKA and EPAC are ubiquitously expressed in all tissues, and an increase in intracellular cAMP levels will lead to the activation of both PKA and EPAC. Therefore, careful dissections of the individual role and relative contribution of EPAC and PKA within the overall cAMP signaling in various model systems are critical for further elucidating the mechanism of cAMP signaling. To date no EPAC-specific antagonists and agonist, as well as isoform-specific agonists have been reported, and developing EPAC-specific pharmacological probes to determine the physiological functions that EPAC play in the overall cAMP-mediated signaling remains a major challenge within the research field. Furthermore, identified regulators of EPAC may lead to new mechanism-based therapeutic strategies specifically targeting the EPAC / cAMP-signaling components as EPAC has been implicated to play important roles in major human pathological conditions such as diabetes, heart disease, and cancer.
This qHTS will be used to screen the Molecular Libraries Small Molecule Repository (MLSMR) as a concentration-titration series using the NCGC unique quantitative screening (qHTS) platform to find activators for EPAC1. In addition, this assay will also be used as a counterscreen for the EPAC2 qHTS. This fluorescent based assay is developed and validated for EPAC1 that measures exchange using EPAC effector Rap1 complex with BODIPY-GDP, a GDP analog with a tethered fluorophores. Activators are identified by monitoring the change in fluorescence signal as the exchanged free BODIPY-GDP has a reduced fluorescence compared to Rap1-bound BODIPY-GDP. Increase in signal (activation) is the desired outcome for the EPAC1 agonist while no activity in this assay is desired for the EPAC2 agonist counterscreen.
[1] de Rooij, J., Zwartkruis, F. J., Verheijen, M. H., Cool, R. H., Nijman, S. M., Wittinghofer, A., and Bos, J.L. (1998) Nature 396, 474-477
NIH Chemical Genomics Center [NCGC]
NIH Molecular Libraries Probe Centers Network [MLPCN]
Assay Submitter (PI): Xiaodong Cheng, The University of Texas Medical Branch
Briefly, three uL of reagents (100 nM EPAC1, 250 nM RAP1B-BODIPY-GDP, 50 uM GDP) were dispensed into a 1536-well Greiner black solid-bottom medium binding assay plate. Controls and test compounds (23 nL) were transferred to the plate via a Kalypsys pin tool equipped with a 1536-pin array. The plates were centrifuged at 1,000 rpm for 15 seconds followed by 5 minute incubation at room temperature. The assay plates were read at 5 minute intervals for 30 minutes in the ViewLux plate reader using 480nm excitation and 540nm emission filters. The results were normalized to the agonist positive control of 6.5 mM cAMP.

SMILES | activation
O=P1(Nc2ncccn2)COc2ccccc2OC1 | inactive: 3.74%
Cc1ccc(S(=O)(=O)N(CCCN)CCCc2c(C)nc(N)[nH]c2=O)cc1 | inactive: -16.2%
Clc1n[nH]nc1-c1nn[nH][15n]1 | inactive: 0.298%
O=P1(N(CCCl)CCCl)NCCC(C(F)(F)F)O1 (stereo unspecified) | inactive: 7.45%
CC(C)(C)C(=O)NC(Sc1ncccn1)C(Cl)(Cl)Cl (stereo unspecified) | inactive: -4.56%
CN(CCCl)Cc1cc(Cl)c(NC2=NCCN2)c(Cl)c1 | inactive: -11.8%
CCOP(=O)(Nc1ccc(C)cn1)OCC | inactive: -13.3%
CCC1=CC2Cc3nc4ccc(Cl)cc4c(N)c3C(C1)C2 (stereo unspecified) | inactive: -5.33%
O=P1(Nc2ccccn2)COc2ccccc2OC1 | inactive: 12.6%
CCOP(=O)(NC(=NC(C)c1ccccc1)NC(C)c1ccccc1)OCC (stereo unspecified) | inactive: -0.247%
CC1(CBr)Cn2c(nc3ccccc3c2=O)S1 (stereo unspecified) | inactive: -0.483%
CN(C(=O)Cc1ccc(Cl)c(Cl)c1)[C@@H]1CCCC[C@H]1N1CCCC1 | inactive: -16%
CC(C)/C=N\N=C(\N)N[N+](=O)[O-] | inactive: -18.7%
COc1ccccc1CNC(=O)COC(=O)C(O)(c1ccccc1)c1ccccc1 | inactive: 3.74%
O=C(COc1ccccc1)OC1CN2CCC1CC2 (stereo unspecified) | inactive: -3.63%
O=C(Nc1ccncc1[N+](=O)[O-])c1ccc([N+](=O)[O-])cc1[N+](=O)[O-] | inactive: 13%
O=C(O)C(=O)c1ccc(N(CCCl)CCCl)cc1 | inactive: -2.38%
COP1(=S)c2c(C)nn(CCC#N)c2N=C(c2ccc(F)cc2)N1C (stereo unspecified) | inactive: 10.8%
COC(=O)C1(C)COP(=O)(N2CCCC2)OC1 (stereo unspecified) | inactive: 1.13%

SMILES | activation
CCC(C)N(CC(C)C)C(=S)SC(NC(C)=O)C(Cl)(Cl)Cl (stereo unspecified) | inactive: -9.15%
CCOC(=O)c1ccc(NC(=O)C(C)(CCl)SC)cc1 (stereo unspecified) | inactive: 5.59%
O=C(OC1CN2CCC1CC2)c1cccc([N+](=O)[O-])c1 (stereo unspecified) | inactive: 9.74%
CSc1ccc(Nc2c([N+](=O)[O-])cc([N+](=O)[O-])cc2[N+](=O)[O-])cc1 | inactive: 18.6%
CCCCOc1ccc(C(=O)NCC2(N3CCCCC3)CCCCC2)cc1OC | inactive: -4.06%
Cc1cc(SC(NC(=O)c2ccccc2)C(Cl)(Cl)Cl)nc(C(C)C)n1 (stereo unspecified) | inactive: -3.05%
COP(=O)(OC)N1CC1c1ccccc1 (stereo unspecified) | inactive: 2.28%
CC1CCNP(=O)(N(CCCl)CCCl)O1 (stereo unspecified) | inactive: 9.84%
O=C(O)C(O)c1ccc(N(CCCl)CCCl)cc1 (stereo unspecified) | inactive: 7.3%
CCOC(=O)Nc1ccc([As](=O)(O)O)c(O)c1 | inactive: -4.84%
O=[N+]([O-])c1ccc(Nc2ccc(Oc3ccc([N+](=O)[O-])cc3[N+](=O)[O-])cc2)c([N+](=O)[O-])c1 | inactive: 5.29%
Cc1cc(SC(NC=O)C(Cl)(Cl)Cl)ncn1 (stereo unspecified) | inactive: 6.39%
O=P(Nc1ccccn1)(c1cccc2ccccc12)c1cccc2ccccc12 | inactive: 12.7%
CCOC(=O)Nc1cccc([As](=O)(O)O)c1 | inactive: 13.3%
Cc1ccc2nc3c(c(C)c2c1)CC(C(Cl)Cl)S3 (stereo unspecified) | inactive: -2.28%
Cc1ccc(OP(=O)(Nc2ccc([N+](=O)[O-])cn2)Oc2ccc(C)cc2)cc1 | inactive: 2.26%
[N-]=[N+]=NC1CCCCC1NC(=O)c1cc([N+](=O)[O-])cc([N+](=O)[O-])c1 (stereo unspecified) | inactive: 2.78%
C[As](=O)(O)c1cccc(C(=O)O)c1 | inactive: 9.63%
O=[As](O)(c1ccc(O)cc1)c1ccccc1O | inactive: -10.3%

SMILES | activation
COc1cc(C(=O)NCC2(N3CCOCC3)CCCCC2)ccc1OCC(C)C | inactive: -4.16%
O=[N+]([O-])c1ccc(-c2cc([N+](=O)[O-])c(O)c([N+](=O)[O-])c2)cc1 | inactive: -1.39%
CCN(CC)C(=S)SC(NC=O)C(Cl)(Cl)Cl (stereo unspecified) | inactive: -5.95%
O=C(OC1CN2CCC1CC2)c1cccc2[nH]cnc12 (stereo unspecified) | inactive: 5.75%
CC(C)NC(=O)NP(=O)(Oc1ccccc1)Oc1ccccc1 | inactive: 3.3%
O=[N+]([O-])c1cc([N+](=O)[O-])c(-c2ccn[nH]2)s1 | inactive: -1.12%
CC(C)c1ccc(OP(=O)(Nc2ccccn2)Oc2ccccc2F)cc1 (stereo unspecified) | inactive: 8.57%
COC(=O)C1(C)COP(=O)(N2CCCCCC2)OC1 (stereo unspecified) | inactive: -5.48%
ClCCSc1nnc(-c2cccnc2)o1 | inactive: -0.828%
COc1ccc2nc(NP(=O)(c3ccccc3)c3ccccc3)sc2c1 | inactive: 6.81%
COc1cc(I)ccc1[As](=O)(O)O | inactive: 1.32%
O=P1(N(CCCl)CCCl)OCCCN1CCCl (stereo unspecified) | inactive: 7.31%
O=P1(N(CCCl)CCCl)Nc2ccccc2N1 | inactive: 7.51%
O=C(OC1CN2CCC1CC2)C12CC3CC(CC(C3)C1)C2 (stereo unspecified) | inactive: 3.17%
Cc1cc(=O)[nH]c(N[N+](=O)[O-])n1 | inactive: -2.34%
Cc1c2c(nc3ccccc13)SC(C(Cl)Cl)C2 (stereo unspecified) | inactive: 8.46%
COc1ccc(N/C(=N/P(=O)(N2CCOCC2)N2CCOCC2)N2CCOCC2)cc1 | inactive: -6.88%
O=[N+]([O-])c1cc(Oc2ccc([N+](=O)[O-])cc2C(F)(F)F)cc([N+](=O)[O-])c1 | inactive: 6.98%
